Data published in PubChem BioAssay (Tox21).
Values joined by “and” are separate entries in the source; they are usually repeats but may differ in a detail not shown here. Identical values can stand only once. The list shows a part of the results, in another mix than the full data. Inconclusive results are not listed. Active and inactive are the calls of the source. Unless noted, calls follow the shape of the dose curve; as a rule, active = well fitted curve in the direction sought with a large enough effect in the repeat runs; inconclusive = weak or mixed curves; inactive = no such curve, though single readings can be large; an effect the other way counts as inactive or inconclusive.

The chains behind the UniProt entries cited, without tags or fusion partners. Where a name states a change or a piece, a line headed by the entry shows the natural chain unless it says otherwise.
UniProt P04150: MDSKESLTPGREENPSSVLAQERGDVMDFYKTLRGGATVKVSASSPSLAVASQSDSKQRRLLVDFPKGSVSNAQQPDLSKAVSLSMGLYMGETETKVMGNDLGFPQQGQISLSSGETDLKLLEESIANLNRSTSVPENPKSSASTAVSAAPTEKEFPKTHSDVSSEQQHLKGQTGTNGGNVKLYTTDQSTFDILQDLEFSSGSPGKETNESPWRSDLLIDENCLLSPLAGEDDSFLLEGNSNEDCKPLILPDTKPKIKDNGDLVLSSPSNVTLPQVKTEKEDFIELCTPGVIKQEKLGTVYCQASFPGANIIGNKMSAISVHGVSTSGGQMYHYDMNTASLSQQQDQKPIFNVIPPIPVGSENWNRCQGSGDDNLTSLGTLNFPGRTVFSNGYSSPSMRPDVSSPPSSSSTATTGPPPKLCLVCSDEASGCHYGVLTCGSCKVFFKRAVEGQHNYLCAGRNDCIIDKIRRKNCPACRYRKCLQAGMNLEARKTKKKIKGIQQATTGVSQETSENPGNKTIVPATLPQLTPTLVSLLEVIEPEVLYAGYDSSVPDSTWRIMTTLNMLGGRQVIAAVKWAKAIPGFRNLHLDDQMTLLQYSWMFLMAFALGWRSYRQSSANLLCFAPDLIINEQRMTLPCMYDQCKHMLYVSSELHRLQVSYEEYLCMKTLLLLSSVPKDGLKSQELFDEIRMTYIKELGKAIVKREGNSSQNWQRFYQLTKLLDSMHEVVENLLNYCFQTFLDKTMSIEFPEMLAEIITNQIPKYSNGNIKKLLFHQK

Experiments:
[1] = qHTS assay for small molecule agonists of the p53 signaling pathway - cell viability (AID 651633; calls by dose curve;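 also: p53RE-bla HCT reporter cells with a stable beta-lactamase p53 reporter; nearly all actives have a fitted effect of over 30% in size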); conditions: p53RE-bla HCT-116 viability, ATP luminescence, 16 h; at 83.3 µM (top of the series) unless noted
In short: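 Viability counter-read: CellTiter-Glo luminescence (30 min, room temperature) in the same p53RE-bla plates. These plates had been exposed to compounds for 16 h at 37 C.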

[2] = qHTS assay for small molecules that induce genotoxicity in human embryonic kidney cells expressing luciferase-tagged ATAD5 - cell viability (AID 651634; calls by dose curve; also: nearly all actives have a fitted effect of over 25% in size)
In short: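 HEK293T ATAD5-luc cells, 2,000/well; compound 15.5 hr, 37C/5% CO2; CellTiter-Fluor 30 min, 37C; fluorescence read.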

[3] = qHTS assay for small molecule disruptors of the mitochondrial membrane potential (AID 720635); also: potency is read from the fitted curve at half-maximal effect
[4] = qHTS assay to test for compound auto fluorescence at 535 nm (green) in HepG2 cells (AID 720675); conditions: green autofluorescence 485/535 nm, 1 h
[5] = qHTS assay to test for compound auto fluorescence at 460 nm (blue) in HEK293 cells (AID 720678); conditions: blue autofluorescence 405/460 nm
In short: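 Blue-channel (Ex/Em 405/460 nm) intensity measured in HEK293 cultures after overnight compound exposure at 37C; signal expressed relative to triamterene. Cells plated 2,000 per well in 10% dialyzed FBS medium and allowed 4-5 hr to attach.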

[6] = qHTS assay to test for compound auto fluorescence at 590 nm (red) in HEK293 cells (AID 720679); conditions: red autofluorescence 540/590 nm
In short: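 Red-channel autofluorescence (Ex/Em 540/590 nm; Rose Bengal sodium reference) was measured after overnight 37C, 5% CO2 exposure of attached HEK293 cells, 2,000 per well in medium with 10% dialyzed FBS.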

[7] = qHTS assay to test for compound auto fluorescence at 535 nm (green) in HEK293 cells (AID 720680); conditions: green autofluorescence 485/535 nm
[8] = qHTS assay to test for compound auto fluorescence at 460 nm (blue) in HEK293 cell free culture (AID 720681); conditions: cell-free medium, autofluorescence 405/460 nm (blue)
In short: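 Blue fluorescence (Ex 405/Em 460 nm, triamterene-equivalent) was read immediately after pin transfer of compound or DMSO into medium (DMEM, 10% FBS) without cells.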

[9] = qHTS assay to test for compound auto fluorescence at 535 nm (green) in HEK293 cell free culture (AID 720682); conditions: cell-free medium, green autofluorescence 485/535 nm, hits give high values
In short: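 Intrinsic compound fluorescence is measured in culture medium containing 10% FBS, with excitation at 485 nm and detection at 535 nm, referenced to fluorescein.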

[10] = qHTS assay to test for compound auto fluorescence at 590 nm (red) in HEK293 cell free culture (AID 720683); conditions: cell-free medium autofluorescence, Ex540/Em590 red
In short: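 Red-channel autofluorescence of compounds in culture medium (DMEM, 10% FBS), no cells, measured at 540/590 nm. Rose Bengal sodium is the reference fluorophore for equivalence.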

[11] = qHTS assay to test for compound auto fluorescence at 590 nm (red) in HepG2 cell free culture (AID 720684); conditions: cell-free medium autofluorescence, red 540/590 nm
[12] = qHTS assay to test for compound auto fluorescence at 460 nm (blue) in HepG2 cell free culture (AID 720685); conditions: Cell-free culture medium, blue autofluorescence 405/460 nm
In short: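 Cell-free plates of MEM plus 10% FBS received 23 nL compound or DMSO vehicle; blue-channel (405/460 nm) intensity scored against triamterene as reference fluorophore.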

[13] = qHTS assay to test for compound auto fluorescence at 535 nm (green) in HepG2 cell free culture (AID 720686); conditions: Cell-free medium, green autofluorescence 485/535 nm
[14] = biological target: Glucocorticoid receptor (Homo sapiens) (UniProt P04150); test: qHTS assay to identify small molecule agonists of the glucocorticoid receptor (GR) signaling pathway (AID 720691; active = well fitted activation curve with a large enough effect in the signal ratio in the repeat runs, not every such curve was filed as active; the % refers to the signal ratio); conditions: GR-bla HeLa, beta-lactamase reporter ratio, 18 h; at 62.4 µM (top of the series) unless noted
[15] = qHTS assay to identify small molecule antagonists of the glucocorticoid receptor (GR) signaling pathway - cell viability counter screen (AID 720693); also: nearly all actives have a fitted effect of over 55% in size
[16] = qHTS assay for identifying genotoxic compounds that show differential cytotoxicity against isogenic chicken DT40 cell lines with known DNA damage response pathways - wild type cell line (AID 743012); also: nearly all actives have a fitted effect of over 60% in size; also: potency is read from the fitted curve at half-maximal effect
In short: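 CellTiter-Glo luminescence readout of viability in wild type DT40 cells after 40 h compound exposure at 37 C/5% CO2; 300 cells/well; reagent incubated 30 min at room temperature before reading.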

[17] = qHTS assay for identifying genotoxic compounds that show differential cytotoxicity against isogenic chicken DT40 cell lines with known DNA damage response pathways - Rev3 mutant cell line (AID 743014); also: nearly all actives have a fitted effect of over 55% in size; also: potency is read from the fitted curve at half-maximal effect
[18] = qHTS assay for identifying genotoxic compounds that show differential cytotoxicity against isogenic chicken DT40 cell lines with known DNA damage response pathways - Rad54/Ku70 mutant cell line (AID 743015); also: nearly all actives have a fitted effect of over 60% in size; also: potency is read from the fitted curve at half-maximal effect
[19] = qHTS assay for small molecules that induce genotoxicity in human embryonic kidney cells expressing luciferase-tagged ATAD5 (AID 651632); conditions: HEK293T ATAD5-luciferase induction, 16 h; at 83.3 µM (top of the series) unless noted; also: nearly all actives have a fitted effect of over 15% in size
In short: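 Luminescence read-out: after 16 hr compound exposure at 37C, ATAD5-luciferase HEK293T cells received Amplite, 30 min RT, then CCD imaging. A rise in signal marks genotoxic stress.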

[20] = biological target: Glucocorticoid receptor (Homo sapiens) (UniProt P04150); test: qHTS assay to identify small molecule antagonists of the glucocorticoid receptor (GR) signaling pathway (AID 720692; active = well fitted inhibition curve with a large enough effect in the signal ratio in the repeat runs, not every such curve was filed as active; the % refers to the signal ratio); conditions: GR-bla HeLa, beta-lactamase FRET ratio, dexamethasone-stimulated, 18 h; at 58.5 µM (top of the series) unless noted
[21] = at 91.3 µM (top of the series) unless noted
% is scaled to controls: 0 for no effect and ±100 for the full control effect.

CC(C)OP(=S)(OC(C)C)SCCNS(=O)(=O)c1ccccc1
active: Potency [3] 12.2 µM | Potency [16] 12.2 µM | Potency [17] 8.63 µM | Potency [18] 13.7 µM
inactive: activity change, negative = cytotoxicity [1] -24.1% | Potency [2] | fluorescence, % of fluorescein control [4, 21] 0.114% | fluorescence, % of triamterene [5, 21] 0.0173% | fluorescence, % of fluorescent control [6, 21] -0.119% | fluorescence, % of fluorescein [7, 21] 0.15% | fluorescence, % of fluorescent control [8, 21] -0.0424% | activity change [9, 21] 0.0321% | fluorescence, % of fluorescent control [10, 21] 0.177% | fluorescence, % of Rose Bengal [11, 21] 0.0527% | fluorescence, % of fluorescent control [12, 21] 0.0898% | fluorescence, % of fluorescein control [13, 21] 0.17% | activation [14] 0.0041% | Potency [15]

O=[N+]([O-])c1ccc(S(=O)(=O)O)c([N+](=O)[O-])c1
inactive: activity change, negative = cytotoxicity [1] 11.5% [at 95.3 µM] | fluorescence, % of fluorescein control [4, 21] -0.0484% | fluorescence, % of triamterene [5, 21] 0.0557% | fluorescence, % of fluorescent control [6, 21] 0.267% | fluorescence, % of fluorescein [7, 21] -0.0631% | fluorescence, % of fluorescent control [8, 21] -0.0013% | activity change [9, 21] 0.035% | fluorescence, % of fluorescent control [10, 21] -0.0335% | fluorescence, % of Rose Bengal [11, 21] 0.13% | fluorescence, % of fluorescent control [12, 21] 0.0061% | fluorescence, % of fluorescein control [13, 21] 0.0183% | Potency [15]

CN(C(=O)Cc1ccccc1)[C@H]1CC[C@@]2(CCCO2)C[C@@H]1N1CCCC1
inactive: activation [19] 1.73% | activity change, negative = cytotoxicity [1] -9.46% | Potency [2] | fluorescence, % of fluorescein control [4, 21] 0.186% [at 46 µM] | fluorescence, % of triamterene [5, 21] 0.457% [at 46 µM] | fluorescence, % of fluorescent control [6, 21] 0.0754% [at 46 µM] | fluorescence, % of fluorescein [7, 21] 0.224% [at 46 µM] | fluorescence, % of fluorescent control [8, 21] 0.669% [at 46 µM] | activity change [9, 21] 0.0245% [at 46 µM] | fluorescence, % of fluorescent control [10, 21] -0.0315% [at 46 µM] | fluorescence, % of Rose Bengal [11, 21] -0.0136% [at 46 µM] | fluorescence, % of fluorescent control [12, 21] 0.579% [at 46 µM] | fluorescence, % of fluorescein control [13, 21] 0.491% [at 46 µM] | activation [14] -3.5% | activity change, negative = inhibition [20] -13.1% | Potency [15] | Potency [17]

NC(=O)Nc1ccc([As](=O)(O)O)cc1
inactive: activity change, negative = cytotoxicity [1] -8.42% and 11.4% | Potency [2] | Potency [3] | fluorescence, % of fluorescein control ([4]; at 46 µM (top of the series)) 0.0833% | fluorescence, % of fluorescein control ([4]; at 91.3 µM (top of the series)) 0.118% | fluorescence, % of triamterene ([5]; at 46 µM (top of the series)) -0.138% | fluorescence, % of triamterene ([5]; at 91.3 µM (top of the series)) 0.0092% | fluorescence, % of fluorescent control ([6]; at 46 µM (top of the series)) -0.077% | fluorescence, % of fluorescent control ([6]; at 91.3 µM (top of the series)) 0.529% | fluorescence, % of fluorescein ([7]; at 46 µM (top of the series)) -0.213% | fluorescence, % of fluorescein ([7]; at 91.3 µM (top of the series)) 0.127% | fluorescence, % of fluorescent control ([8]; at 46 µM (top of the series)) -0.106% | fluorescence, % of fluorescent control ([8]; at 91.3 µM (top of the series)) 0.0321% | activity change ([9]; at 46 µM (top of the series)) -0.383% | activity change ([9]; at 91.3 µM (top of the series)) 0.0191% | fluorescence, % of fluorescent control ([10]; at 46 µM (top of the series)) -0.18% | fluorescence, % of fluorescent control ([10]; at 91.3 µM (top of the series)) -0.128% | fluorescence, % of Rose Bengal ([11]; at 46 µM (top of the series)) 0.438% | fluorescence, % of Rose Bengal ([11]; at 91.3 µM (top of the series)) 0.0175% | fluorescence, % of fluorescent control ([12]; at 46 µM (top of the series)) 0.0208% | fluorescence, % of fluorescent control ([12]; at 91.3 µM (top of the series)) 0.0803% | fluorescence, % of fluorescein control ([13]; at 46 µM (top of the series)) -0.19% | fluorescence, % of fluorescein control ([13]; at 91.3 µM (top of the series)) 0.12% | Potency [15] | Potency [16] | Potency [17] | Potency [18]

CCOP(=S)(CC)Sc1ccccc1 (configuration not stated)
inactive: activation [19] -2.46% | activity change, negative = cytotoxicity [1] 12.5% | Potency [2] | fluorescence, % of fluorescein control [4, 21] -0.0265% | fluorescence, % of triamterene [5, 21] 0.0095% | fluorescence, % of fluorescent control [6, 21] 0.108% | fluorescence, % of fluorescein [7, 21] -0.0321% | fluorescence, % of fluorescent control [8, 21] -0.149% | activity change [9, 21] -0.0022% | fluorescence, % of fluorescent control [10, 21] -0.0948% | fluorescence, % of Rose Bengal [11, 21] -0.0561% | fluorescence, % of fluorescent control [12, 21] -0.0767% | fluorescence, % of fluorescein control [13, 21] -0.0348% | activation [14] 0.777% | Potency [15] | Potency [16] | Potency [17]

CCCCCCCCCCCCCC[P+](CCCCCC)(CCCCCC)CCCCCC
inactive: activation [19] -12.7% | fluorescence, % of fluorescein control [4, 21] 0.0081% | fluorescence, % of triamterene [5, 21] -0.071% | fluorescence, % of fluorescent control [6, 21] 0.084% | fluorescence, % of fluorescein [7, 21] 0.0033% | fluorescence, % of fluorescent control [8, 21] -0.0458% | activity change [9, 21] -0.0518% | fluorescence, % of fluorescent control [10, 21] 0.0294% | fluorescence, % of Rose Bengal [11, 21] -0.101% | fluorescence, % of fluorescent control [12, 21] -0.0607% | fluorescence, % of fluorescein control [13, 21] -0.0931%
active: Potency [3] 0.272 µM

CCOC(=O)Cl
inactive: activation [19] 1% | activity change, negative = cytotoxicity [1] -11.1% | Potency [2] | fluorescence, % of fluorescein control [4, 21] -0.0028% | fluorescence, % of triamterene [5, 21] -0.212% | fluorescence, % of fluorescent control [6, 21] 0.0814% | fluorescence, % of fluorescein [7, 21] -0.0064% | fluorescence, % of fluorescent control [8, 21] 0.046% | activity change [9, 21] 0.0763% | fluorescence, % of fluorescent control [10, 21] -0.101% | fluorescence, % of Rose Bengal [11, 21] -0.007% | fluorescence, % of fluorescent control [12, 21] -0.0025% | fluorescence, % of fluorescein control [13, 21] -0.111% | activation [14] -1.24% | activity change, negative = inhibition [20] -4.2% | Potency [15] | Potency [16] | Potency [17] | Potency [18]
